Laboratory results as given in US8419820B2, “Fast dissolving water-soluble fertilizer formulations and methods and uses thereof” (Everris International B.V., priority 2009, dated 2013).
This is a selection: effects in other tests are not listed, and their absence says nothing.

Assay: pH of a 1% solution of fertilizer components in water
Format: physicochemical
Conditions: 1% solution in water at room temperature

Ammonium Nitrate
pH: 6
